High-throughput results from PubChem.
The list is not random: actives were taken first. Their share in the collection is about 0.73%.
Yeast UUG start: modulators of start codon recognition fidelity in yeast; AID 602363; hit rate 0.13% among 350,000; activity score, % at 18.7 µM; S. cerevisiae UUG-firefly luciferase reporter, luminescence/redox ratio;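 active = replicate mean at a twofold rise or more, about +100% in these data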;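 note: firefly luciferase made from a UUG start codon reports start codon fidelity; reporter light over untreated wells divided by growth signal over untreated wells; some hits fall short of that in this replicate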
RAD52 inh: blocks human RAD52 DNA annealing; inhibition, % at 18.7 µM; AID 651710; 0.46% of 360,000 active; P43351; recombinant RAD52 DNA annealing, FRET fluorescence;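 active = every replicate showing at least 50% inhibition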
E-selectin induc: E-selectin induction on HUVECs | activation, % at 7.58 µM | HUVEC E-selectin immunofluorescence imaging; normalized: neutral wells 0, TNF-alpha wells 100 | P16581 | 0.37% of 260,000 active;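 active = mean E-selectin-positive cell signal at least 10% of the positive control, reached in at least 60% of replicates, without over 20% cell loss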
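Read-out: % PE-positive cells | Test system: HUVEC | Doses: One compound dose added by pin transfer | Buffer or medium: EGM-2 over gelatin coat | Signal: Immunofluorescence imaging | Benchmarks: TNF-alpha, DMSO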
XiGFP reactiv: X-chromosome reactivation activator. XiGFP mouse fibroblasts, % GFP-positive cells imaging, 3 d; cells co-treated with 5-aza-dC sensitizer; scaled so ellipticine positive control = 100%. activation, % at 7.58 µM. 0.055% of 360,000 active;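 active = mean normalized replicate activation at least 10% and every replicate at or above 10%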
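Material: XiGFP fibroblasts, SV40-immortalized; Buffer or medium: DMEM containing 5-aza-dC; Compound dosing: single point; Times: 3 days compound exposure.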
RAD54 inh: RAD54 (human) branch migration inhibition. Q92698. RAD54 Holliday junction branch migration, FAM/BHQ fluorescence. inhibition, % at 10.4 µM. 0.14% of 360,000 active. AID 602329;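 active = mean normalized replicate activity at least 40 and at least half of replicates scoring 40 or more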;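 note: inhibitors cause a drop in the FAM fluorescence signal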
Of the large screens only hits and unclear results are named; the others gave an inactive call.

COc1ccccc1NC(=O)N1CC[C@H]2[C@@H]1c1cc(C#Cc3ccc(F)cc3)ccc1N(C)[C@H]2CO	RAD52 inh 74
COc1ccc(-c2ccc3c(c2)[C@@H]2[C@@H](CCN2S(=O)(=O)c2ccc(F)cc2)[C@@H](CO)N3C)cc1	RAD52 inh 90 (no result: Yeast UUG start, RAD54 inh)
COc1ccccc1NC(=O)N1CC[C@@H]2[C@H]1c1cc(-c3ccc(F)cc3)ccc1N(C)[C@H]2CO	none
CN1c2ccc(C#Cc3cccnc3)cc2[C@@H]2[C@@H](CCN2C(=O)C2CCC2)[C@H]1CO	E-selectin induc 64 (no result: Yeast UUG start, RAD54 inh)
Brc1ccc2oc(-c3ccn[nH]3)cc2c1	E-selectin induc 74
COc1ccccc1-n1c(SCC(=O)O)nc2c(sc(=S)n2-c2ccccc2C)c1=O	E-selectin induc 43
CCN(CC)C(=O)CSc1nc2c(sc(=S)n2-c2ccccc2OC)c(=O)n1-c1ccccc1	none
COCC(=O)N1CCC2(CC1)CN(Cc1ccccc1Cl)[C@@H](CO)c1c2c2ccc(OC)cc2n1C	none (no result: Yeast UUG start, RAD52 inh, E-selectin induc, RAD54 inh)
ON=C1c2cc(OCCN3CCCCC3)ccc2-c2ccc(OCCN3CCCCC3)cc21	RAD54 inh 86 (no result: RAD52 inh, E-selectin induc, XiGFP reactiv)
COc1ccccc1OCC(=O)Nc1ccc(S(=O)(=O)N2CCCC2)cc1	none
COc1ccccc1OCC(=O)Nc1ccc(S(=O)(=O)N2CCN(C)CC2)cc1	E-selectin induc 333
CC1CCC(NC(=O)COC(=O)CSc2ccc(C(N)=O)cc2[N+](=O)[O-])CC1 (stereo unspecified)	none (no result: Yeast UUG start, E-selectin induc, RAD54 inh)
CC1CN(C(=O)COC(=O)CSc2ccc(C(N)=O)cc2[N+](=O)[O-])CC(C)O1 (stereo unspecified)	E-selectin induc 219 (no result: Yeast UUG start, RAD54 inh)
COCC(=O)N1CC2(C1)[C@H](c1ccc(-c3ccccc3)cc1)[C@@H](CO)N2C(C)=O	none (no result: Yeast UUG start, RAD54 inh)
COC(=O)c1cc(S(=O)(=O)NCC2CCN(C(=O)C(=O)c3cc4ccccc4o3)CC2)cs1	none (no result: Yeast UUG start, RAD54 inh)
O=C(Nn1c(-c2ccncc2)nc2ccccc2c1=O)c1ccccc1Br	E-selectin induc 114 (no result: Yeast UUG start, RAD54 inh)
COc1cccc2c1C(=O)c1c(O)c3c(c(O)c1C2=O)CC(O)(C(C)=O)CC3OC1CC(O)C(O)C(C)O1 (stereo unspecified)	none (no result: Yeast UUG start, RAD54 inh)
COc1cccc2c1C(=O)c1c(O)c3c(c(O)c1C2=O)C[C@](O)(C(C)=O)C[C@H]3O[C@@H]1C[C@@H](N)[C@@H](O)[C@@H](C)O1	E-selectin induc 146
CCN1/C(=C/c2ccc3ccccc3[n+]2CC)C=Cc2ccccc21	RAD54 inh 71 (no result: RAD52 inh, E-selectin induc, XiGFP reactiv)
CNC[C@H]1OCCCC[C@@H](C)Oc2ccc(NC(=O)NC3CCCCC3)cc2C(=O)N([C@H](C)CO)C[C@@H]1C	none
C[C@@H]1CN([C@H](C)CO)C(=O)Cc2cc(NC(=O)Cc3cn(C)c4ccccc34)ccc2O[C@@H]1CN(C)C(=O)Nc1ccc(C(F)(F)F)cc1	none
C[C@@H]1CN([C@H](C)CO)C(=O)Cc2cc(NC(=O)Cc3cn(C)c4ccccc34)ccc2O[C@H]1CN(C)Cc1ccc(C(F)(F)F)cc1	E-selectin induc 152
C[C@H]1CN([C@@H](C)CO)C(=O)Cc2cc(NC(=O)Cc3cn(C)c4ccccc34)ccc2O[C@H]1CN(C)Cc1ccc(C(F)(F)F)cc1	E-selectin induc 258
C[C@H](CO)N1C[C@H](C)[C@@H](CN(C)C(=O)Nc2ccc(C(F)(F)F)cc2)Oc2ccc(NC(=O)Cc3cn(C)c4ccccc34)cc2CC1=O	E-selectin induc 34
C/C=C/c1ccc2c(c1)O[C@H](CN(C)C(=O)c1ccc(F)cc1)[C@@H](C)CN([C@H](C)CO)S2(=O)=O	none
COc1ccccc1-c1ccc2c(c1)O[C@@H](CN(C)C(=O)c1cccnc1)[C@H](C)CN([C@H](C)CO)S2(=O)=O	none (no result: Yeast UUG start)
CNC[C@@H]1Oc2c(NS(=O)(=O)c3ccc(F)cc3)cccc2C(=O)N([C@@H](C)CO)C[C@@H]1C	none (no result: E-selectin induc)
CN(C)CCCN(C(=O)COc1ccc(Cl)cc1)c1nc2cc3c(cc2s1)OCCO3	RAD52 inh 60 (no result: E-selectin induc)
CN(C1CCCC1)C1CCN(C(=O)CNC(=O)/C=C/c2cccc(C(F)(F)F)c2)CC1	E-selectin induc 39
CN(C1CCCC1)C1CCN(C(=O)CNC(=O)/C=C/c2ccc(F)cc2)CC1	none
O=C(C[C@@H]1C[C@H]2c3cc(NC(=O)c4cccnc4)ccc3O[C@H]2[C@@H](CO)O1)NCC1CC1	none
